{
  "sequences": {"note": "Amino acid sequences for entries named in this document (tags omitted). A change or cut given only in a name is not applied to a line headed by its entry.", "UniProt P51451": "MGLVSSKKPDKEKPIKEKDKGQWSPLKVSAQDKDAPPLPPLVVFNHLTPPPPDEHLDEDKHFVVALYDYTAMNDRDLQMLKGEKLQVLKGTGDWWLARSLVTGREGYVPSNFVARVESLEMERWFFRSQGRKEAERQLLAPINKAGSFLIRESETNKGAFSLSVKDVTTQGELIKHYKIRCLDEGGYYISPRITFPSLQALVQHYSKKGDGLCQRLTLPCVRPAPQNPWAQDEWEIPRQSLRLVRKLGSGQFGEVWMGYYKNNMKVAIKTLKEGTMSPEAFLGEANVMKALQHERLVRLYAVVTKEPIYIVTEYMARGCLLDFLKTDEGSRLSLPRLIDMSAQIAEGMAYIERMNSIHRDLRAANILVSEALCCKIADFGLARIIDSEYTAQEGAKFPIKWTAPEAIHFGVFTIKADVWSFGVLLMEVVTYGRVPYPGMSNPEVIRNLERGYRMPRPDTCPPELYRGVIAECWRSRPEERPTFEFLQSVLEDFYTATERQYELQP", "UniProt P17948, whole entry, looked up": "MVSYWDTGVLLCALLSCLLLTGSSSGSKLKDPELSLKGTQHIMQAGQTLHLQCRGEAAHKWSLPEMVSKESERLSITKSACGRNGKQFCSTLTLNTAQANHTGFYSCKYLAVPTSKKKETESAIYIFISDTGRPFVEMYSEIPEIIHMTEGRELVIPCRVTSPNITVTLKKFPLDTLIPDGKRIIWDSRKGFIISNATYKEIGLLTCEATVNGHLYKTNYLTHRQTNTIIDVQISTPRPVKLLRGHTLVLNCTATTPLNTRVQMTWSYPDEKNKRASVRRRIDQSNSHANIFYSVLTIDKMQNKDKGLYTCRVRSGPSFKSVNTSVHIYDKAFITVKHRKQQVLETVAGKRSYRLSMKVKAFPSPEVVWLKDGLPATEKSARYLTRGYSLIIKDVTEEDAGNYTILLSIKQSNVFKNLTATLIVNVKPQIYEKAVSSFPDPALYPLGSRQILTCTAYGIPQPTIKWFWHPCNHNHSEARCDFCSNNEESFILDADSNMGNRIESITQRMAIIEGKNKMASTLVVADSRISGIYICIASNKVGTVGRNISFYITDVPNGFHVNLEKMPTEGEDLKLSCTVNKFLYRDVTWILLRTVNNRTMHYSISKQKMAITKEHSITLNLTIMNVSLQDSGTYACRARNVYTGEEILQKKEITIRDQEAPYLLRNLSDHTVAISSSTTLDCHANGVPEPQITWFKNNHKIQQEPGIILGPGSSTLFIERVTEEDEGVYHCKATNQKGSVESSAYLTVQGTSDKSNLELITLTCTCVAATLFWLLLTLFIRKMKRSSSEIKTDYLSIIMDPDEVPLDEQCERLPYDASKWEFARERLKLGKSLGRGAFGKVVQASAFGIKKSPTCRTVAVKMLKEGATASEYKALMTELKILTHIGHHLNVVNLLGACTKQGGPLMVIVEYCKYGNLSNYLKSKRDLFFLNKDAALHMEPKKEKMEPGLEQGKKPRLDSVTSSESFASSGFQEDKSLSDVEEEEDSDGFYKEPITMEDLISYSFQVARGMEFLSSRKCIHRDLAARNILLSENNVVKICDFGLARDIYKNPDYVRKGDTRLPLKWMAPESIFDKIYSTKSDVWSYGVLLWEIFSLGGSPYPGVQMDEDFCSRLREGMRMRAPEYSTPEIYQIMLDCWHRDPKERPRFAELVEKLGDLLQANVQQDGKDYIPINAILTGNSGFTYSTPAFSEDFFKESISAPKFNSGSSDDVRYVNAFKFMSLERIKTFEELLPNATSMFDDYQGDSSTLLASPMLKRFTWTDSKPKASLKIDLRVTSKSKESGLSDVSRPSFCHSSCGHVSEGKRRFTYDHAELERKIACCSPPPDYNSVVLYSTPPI", "UniProt Q06187": "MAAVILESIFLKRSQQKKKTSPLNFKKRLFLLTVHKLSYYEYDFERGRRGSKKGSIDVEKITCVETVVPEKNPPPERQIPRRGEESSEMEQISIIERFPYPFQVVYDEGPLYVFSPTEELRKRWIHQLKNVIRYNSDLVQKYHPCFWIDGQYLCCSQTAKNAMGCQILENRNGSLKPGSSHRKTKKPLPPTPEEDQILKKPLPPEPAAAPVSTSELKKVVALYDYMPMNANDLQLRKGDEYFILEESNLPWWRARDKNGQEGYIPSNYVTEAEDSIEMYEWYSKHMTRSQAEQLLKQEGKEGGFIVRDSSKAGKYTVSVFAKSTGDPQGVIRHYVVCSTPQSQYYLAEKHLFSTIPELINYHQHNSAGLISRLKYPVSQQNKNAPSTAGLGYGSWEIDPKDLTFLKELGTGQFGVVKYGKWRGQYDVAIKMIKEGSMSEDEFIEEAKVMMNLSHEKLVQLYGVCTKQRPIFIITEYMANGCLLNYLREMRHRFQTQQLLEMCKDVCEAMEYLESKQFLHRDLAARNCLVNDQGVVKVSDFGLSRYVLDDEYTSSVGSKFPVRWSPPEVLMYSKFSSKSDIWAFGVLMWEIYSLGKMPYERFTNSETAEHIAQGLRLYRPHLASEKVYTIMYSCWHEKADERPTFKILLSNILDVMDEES", "UniProt P37173, whole entry, looked up": "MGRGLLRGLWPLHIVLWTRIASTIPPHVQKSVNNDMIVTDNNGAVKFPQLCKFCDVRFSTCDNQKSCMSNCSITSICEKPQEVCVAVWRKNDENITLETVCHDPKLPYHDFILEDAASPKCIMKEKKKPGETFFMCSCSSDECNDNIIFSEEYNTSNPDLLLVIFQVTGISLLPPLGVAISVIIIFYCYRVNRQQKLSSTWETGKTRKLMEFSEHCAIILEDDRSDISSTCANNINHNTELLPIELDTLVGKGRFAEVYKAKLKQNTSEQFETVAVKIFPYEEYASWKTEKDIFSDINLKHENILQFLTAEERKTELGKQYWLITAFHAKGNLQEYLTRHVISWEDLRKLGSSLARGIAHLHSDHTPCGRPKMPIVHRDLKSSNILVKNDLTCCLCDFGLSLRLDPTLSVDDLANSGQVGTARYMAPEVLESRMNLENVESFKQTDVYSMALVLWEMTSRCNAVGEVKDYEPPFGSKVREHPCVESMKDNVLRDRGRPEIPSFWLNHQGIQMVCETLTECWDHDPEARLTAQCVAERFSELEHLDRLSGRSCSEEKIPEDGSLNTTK", "UniProt P42679": "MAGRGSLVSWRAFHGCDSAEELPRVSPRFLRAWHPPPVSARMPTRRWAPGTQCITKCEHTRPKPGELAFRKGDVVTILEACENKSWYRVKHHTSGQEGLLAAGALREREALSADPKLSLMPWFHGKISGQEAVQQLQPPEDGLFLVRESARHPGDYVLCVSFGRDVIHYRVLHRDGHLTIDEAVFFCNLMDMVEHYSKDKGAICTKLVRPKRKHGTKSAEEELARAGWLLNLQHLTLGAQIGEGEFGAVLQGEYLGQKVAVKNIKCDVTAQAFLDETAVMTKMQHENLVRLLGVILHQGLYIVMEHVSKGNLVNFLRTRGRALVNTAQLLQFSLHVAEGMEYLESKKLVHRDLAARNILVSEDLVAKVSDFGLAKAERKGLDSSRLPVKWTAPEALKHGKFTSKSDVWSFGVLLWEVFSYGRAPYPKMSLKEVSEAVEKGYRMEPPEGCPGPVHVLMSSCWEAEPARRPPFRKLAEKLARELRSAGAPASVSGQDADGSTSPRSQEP", "UniProt P30291": "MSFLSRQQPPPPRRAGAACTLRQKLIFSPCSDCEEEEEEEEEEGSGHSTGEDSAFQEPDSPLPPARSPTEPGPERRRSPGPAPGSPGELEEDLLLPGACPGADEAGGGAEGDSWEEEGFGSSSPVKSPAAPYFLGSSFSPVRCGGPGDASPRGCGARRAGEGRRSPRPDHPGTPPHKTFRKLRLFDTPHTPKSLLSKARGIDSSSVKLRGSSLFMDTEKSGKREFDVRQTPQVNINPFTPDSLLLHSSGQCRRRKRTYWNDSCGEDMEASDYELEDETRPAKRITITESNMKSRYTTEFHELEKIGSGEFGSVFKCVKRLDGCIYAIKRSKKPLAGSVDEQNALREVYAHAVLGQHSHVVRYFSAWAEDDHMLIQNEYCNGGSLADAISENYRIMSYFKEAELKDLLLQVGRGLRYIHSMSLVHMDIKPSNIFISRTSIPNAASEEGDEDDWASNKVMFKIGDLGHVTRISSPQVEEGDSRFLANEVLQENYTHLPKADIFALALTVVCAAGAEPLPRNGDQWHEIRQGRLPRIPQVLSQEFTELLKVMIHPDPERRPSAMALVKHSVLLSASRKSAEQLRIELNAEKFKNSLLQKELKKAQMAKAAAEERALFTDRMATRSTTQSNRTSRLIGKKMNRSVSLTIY"},
  "source": "the kinase profiling compilation of Christmann-Franck et al. (2016)",
  "test_in_all_cases": "radiometric filter-binding kinase assay, Kinase HotSpot",
  "conditions_in_all_cases": "compound 0.5 µM; ATP 10 µM",
  "key": {"PIM3 (human)": {"molecular_target": "PIM3 (human) (UniProt Q86V86)"}, "BLK (human)": {"molecular_target": "BLK (human) (UniProt P51451)"}, "FLT1 (human)": {"molecular_target": "FLT1 (human) (UniProt P17948)"}, "BTK (human)": {"molecular_target": "BTK (human) (UniProt Q06187)"}, "TGFBR2 (human)": {"molecular_target": "TGFBR2 (human) (UniProt P37173)"}, "MATK (human)": {"molecular_target": "MATK (human) (UniProt P42679)"}, "WEE1 (human)": {"molecular_target": "WEE1 (human) (UniProt P30291)"}},
  "data": [
    {"compound": "CO[C@H]1[C@@H](OC)C[C@H](C)[C@@H](OC)C2=CC(=O)C=C(NC(=O)/C(C)=C\\C=C/[C@H](OC)[C@@H](OC(N)=O)/C(C)=C\\[C@@H]1C)C2=O", "values": [
      {"measurement": "residual activity", "setting": "PIM3 (human)", "result": 98.2, "unit": "%"},
      {"measurement": "residual activity", "setting": "BLK (human)", "result": 101, "unit": "%"},
      {"measurement": "residual activity", "setting": "FLT1 (human)", "result": 102, "unit": "%"},
      {"measurement": "residual activity", "setting": "BTK (human)", "result": 103, "unit": "%"},
      {"measurement": "residual activity", "setting": "TGFBR2 (human)", "result": 128, "unit": "%"},
      {"measurement": "residual activity", "setting": "MATK (human)", "result": 95.1, "unit": "%"},
      {"measurement": "residual activity", "setting": "WEE1 (human)", "result": 102, "unit": "%"}
    ]}
  ]
}
